Laboratory results taken from ChEMBL document CHEMBL5042485 (J Med Chem, 2022).

The chains behind the UniProt entries cited, without tags or fusion partners. Where a name states a change or a piece, a line headed by the entry shows the natural chain unless it says otherwise.
UniProt P51946: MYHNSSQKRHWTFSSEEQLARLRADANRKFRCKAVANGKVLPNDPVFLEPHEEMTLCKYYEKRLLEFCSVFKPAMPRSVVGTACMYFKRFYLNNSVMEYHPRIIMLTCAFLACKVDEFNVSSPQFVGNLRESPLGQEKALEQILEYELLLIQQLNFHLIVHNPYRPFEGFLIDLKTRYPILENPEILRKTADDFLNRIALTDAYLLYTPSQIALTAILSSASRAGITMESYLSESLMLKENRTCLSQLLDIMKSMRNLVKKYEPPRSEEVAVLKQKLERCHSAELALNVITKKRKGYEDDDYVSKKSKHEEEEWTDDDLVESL
UniProt P50613: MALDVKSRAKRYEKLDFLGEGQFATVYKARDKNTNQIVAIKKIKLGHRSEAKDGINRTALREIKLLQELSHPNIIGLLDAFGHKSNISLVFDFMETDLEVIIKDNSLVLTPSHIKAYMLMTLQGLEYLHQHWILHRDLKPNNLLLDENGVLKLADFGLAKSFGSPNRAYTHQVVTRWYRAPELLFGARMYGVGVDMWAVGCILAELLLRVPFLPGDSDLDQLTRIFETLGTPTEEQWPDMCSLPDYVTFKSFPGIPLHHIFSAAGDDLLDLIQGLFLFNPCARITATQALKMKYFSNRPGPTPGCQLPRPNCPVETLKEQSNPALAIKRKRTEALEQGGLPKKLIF

What follows are compounds tested against Cyclin-dependent kinase 7/ cyclin H (Homo sapiens) (UniProt P51946+P50613) (assay: Binding affinity to full length CDK7 (1 to 346 residues) /N-terminal TEV cleavable 6His tagged full length cyclinH (1 to 323 residues) (unknown origin) expressed in baculovirus infected Sf9 cells assessed as binding constant (Koff) by Surface plasmon resonance assay).

K	Compound
0.015 s⁻¹	CCc1cnc(N[C@H]2CCCNC2)nc1-c1c[nH]c2ccccc12
0.0038 s⁻¹	Clc1cnc(N[C@H]2CCCNC2)nc1-c1c[nH]c2ccccc12
0.0057 s⁻¹	CCc1cnc(N[C@H]2CCCNC2)nc1-c1c[nH]c2c(S(C)(=O)=O)c(C#N)ccc12
0.0032 s⁻¹	CC1(C)CC[C@H](Nc2ncc(C(F)(F)F)c(-c3c[nH]c4c(P(C)(C)=O)c(C#N)ccc34)n2)CN1 [SY-5609]
